The subject of series [1] is adipose tissue stromal cells (ATSCs). As to the kind of experiment: Cell viability / proliferation of ATSCs by trypan blue exclusion.
Series [2] relates to ATSCs. As to the kind of experiment: Oligonucleotide microarray analysis of gene expression. The series is classed as cell-based, human. The following applies: control ATSCs vs selenium-treated ATSCs. Here is the method: To confirm the pattern of gene expression, oligonucleotide microarray analysis was performed.
The subject of series [3] is ATSCs. Briefly: Cell migration assay using transwell membrane in vitro. The settings on record: 5 ng/ml selenium 3 days, vs control ATSCs, time-dependent. The series is classed as cell-based, human. Here is the method: The cells were then treated with selenium (5 ng/ml) for 3 days. The cultured cells were transferred into Costar transwell membrane (8 μm pore size), and placed on 6-well plates. Under the membrane, selenium and a 2% FBS-containing α-MEM medium were added to each well. In an upper chamber, the cells were incubated in a 2% FBS-containing α-MEM medium at 37° C. for 2 hours, and the plates were incubated overnight at 37° C. in a CO2 incubator. The cells on the lower surface of the plate were dried, counterstained with Harris hematoxylin for 20 minutes, and then washed. The stained inserts were placed on an object slide, and the number of cells was counted under a 200× inverted bright field microscope. The cell counts were repeatedly estimated to ten bright fields under the 200× microscope, and their average was calculated. The migration was represented as the count of cells per field of the spontaneous migration which was non-specifically determined.

In the case of `O=[Se]([O-])[O-].[Na+].[Na+]` [selenium, sodium selenite], in series [1], the “concentration of selenium that induces cytotoxicity” value is on record as “more than 20 ng/ml”. In series [1] (5 ng/ml selenium for 3 days, trypan blue exclusion), the “proliferation efficiency of the ATSCs” value was “significant increase”. For the same compound, in series [2], the “share of total genes with more than 2.2-fold difference in expression level” value is on record as “less than 6%”. For the same compound, in series [3], the migration efficiency entry is listed as “significantly increased”.

The values are drawn from US20100233131A1, “SELENIUM DEDIFFERENTIATED CELL, PREPARATION METHOD AND USAGE THEREOF” (PUSAN NATIONAL UNIVERSITY INDUSTRY-UNIVERSITY COOP, priority 2008, published 2010).
